# Reference: PubChem BioAssay AID651957 (The Scripps Research Institute Molecular Screening Center, 2012)
# Sequences of proteins named here, by UniProt entry; tags and fusion partners are left off.
# UniProt Q15596, whole entry: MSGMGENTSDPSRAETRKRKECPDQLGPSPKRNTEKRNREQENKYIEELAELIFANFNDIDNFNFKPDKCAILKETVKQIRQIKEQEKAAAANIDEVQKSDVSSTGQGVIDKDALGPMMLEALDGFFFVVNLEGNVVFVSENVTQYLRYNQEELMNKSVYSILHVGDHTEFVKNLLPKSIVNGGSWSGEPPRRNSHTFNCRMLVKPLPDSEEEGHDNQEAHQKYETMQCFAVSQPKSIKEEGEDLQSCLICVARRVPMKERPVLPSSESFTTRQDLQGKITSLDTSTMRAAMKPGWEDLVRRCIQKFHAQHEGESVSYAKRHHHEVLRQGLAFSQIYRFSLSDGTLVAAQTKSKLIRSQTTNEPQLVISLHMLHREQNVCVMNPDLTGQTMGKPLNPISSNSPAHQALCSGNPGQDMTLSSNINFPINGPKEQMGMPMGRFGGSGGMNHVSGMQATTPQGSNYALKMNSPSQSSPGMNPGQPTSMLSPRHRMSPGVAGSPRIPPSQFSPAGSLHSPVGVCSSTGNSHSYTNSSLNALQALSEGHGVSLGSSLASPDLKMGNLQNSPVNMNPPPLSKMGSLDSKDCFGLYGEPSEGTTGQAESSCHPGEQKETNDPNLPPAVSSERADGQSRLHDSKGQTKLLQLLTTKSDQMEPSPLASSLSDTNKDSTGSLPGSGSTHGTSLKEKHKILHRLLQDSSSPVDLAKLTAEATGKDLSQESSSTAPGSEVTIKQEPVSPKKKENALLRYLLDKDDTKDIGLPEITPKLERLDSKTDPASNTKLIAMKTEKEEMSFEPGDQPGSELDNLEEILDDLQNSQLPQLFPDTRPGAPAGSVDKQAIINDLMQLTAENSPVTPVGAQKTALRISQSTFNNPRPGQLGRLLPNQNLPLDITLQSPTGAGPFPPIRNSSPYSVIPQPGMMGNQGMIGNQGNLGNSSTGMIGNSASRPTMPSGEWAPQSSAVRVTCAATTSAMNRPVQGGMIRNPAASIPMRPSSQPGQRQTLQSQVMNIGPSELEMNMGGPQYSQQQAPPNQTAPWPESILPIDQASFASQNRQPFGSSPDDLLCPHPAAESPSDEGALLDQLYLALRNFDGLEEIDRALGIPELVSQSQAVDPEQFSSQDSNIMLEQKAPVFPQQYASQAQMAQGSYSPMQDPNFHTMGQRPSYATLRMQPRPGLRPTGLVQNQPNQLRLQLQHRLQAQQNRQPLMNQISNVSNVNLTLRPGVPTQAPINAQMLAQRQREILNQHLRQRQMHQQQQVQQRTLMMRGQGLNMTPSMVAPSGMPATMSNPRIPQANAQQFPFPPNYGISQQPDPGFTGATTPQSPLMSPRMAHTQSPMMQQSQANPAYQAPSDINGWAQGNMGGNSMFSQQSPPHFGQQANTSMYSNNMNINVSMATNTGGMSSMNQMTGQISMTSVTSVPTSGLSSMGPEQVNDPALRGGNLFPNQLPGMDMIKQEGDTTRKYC
# The entries are a selection whose mix differs from that of the whole data set. Activity calls are given as the source filed them.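 The calls were made as follows: active = inhibition above the mean inhibition of all tested compounds plus 3 SD, set per campaign (cut at about 52% in these data); inactive = the rest.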
# Target: Nuclear receptor coactivator 2 (Homo sapiens) (UniProt Q15596)
# Assay: decrease of SRC2 fusion reporter luminescence – cell-based, SRC2 inhibitor project, primary screen (AID 651957);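 also: 0% = DMSO treated cells and 100% = cells given Gossypol at 36 µM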
# Settings: HEK293 GAL4-SRC2 luciferase reporter, at 9 µM, stronger effect = higher value
row,Compound,inhibition
1,CCC(=O)N(c1ccccc1)C1(COC)CCN(CCn2nnn(CC)c2=O)CC1,inactive: 6.72%
2,CCC(=O)N(c1ccccc1)C1(COC)CCN(CCc2cccs2)CC1,inactive: 4.41%
